Results as given in ChEMBL document CHEMBL1151564, “Arylacetamide kappa-selective opioid ligands” (Bioorg Med Chem Lett, 1997).

The chains behind the UniProt entries cited, without tags or fusion partners. Where a name states a change or a piece, a line headed by the entry shows the natural chain unless it says otherwise.
UniProt P97266, whole entry, looked up: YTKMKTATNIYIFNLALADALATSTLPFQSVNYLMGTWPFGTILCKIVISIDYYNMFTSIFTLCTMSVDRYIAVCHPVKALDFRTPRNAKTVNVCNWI
UniProt P41144: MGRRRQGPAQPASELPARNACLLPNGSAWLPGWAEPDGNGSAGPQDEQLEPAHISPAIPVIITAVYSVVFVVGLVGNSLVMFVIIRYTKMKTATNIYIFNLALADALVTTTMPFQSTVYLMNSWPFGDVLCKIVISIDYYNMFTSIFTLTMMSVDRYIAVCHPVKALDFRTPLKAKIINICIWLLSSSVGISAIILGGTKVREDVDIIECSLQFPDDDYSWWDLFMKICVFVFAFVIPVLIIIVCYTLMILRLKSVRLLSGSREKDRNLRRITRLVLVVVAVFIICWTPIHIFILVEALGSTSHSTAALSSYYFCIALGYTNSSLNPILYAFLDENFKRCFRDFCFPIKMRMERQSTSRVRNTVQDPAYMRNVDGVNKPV

Assays:
Mu-type opioid receptor = Mu-type opioid receptor (Cavia porcellus, UniProt P97266); experiment: Compound was evaluated for the inhibition of Opioid receptor mu 1 binding to guinea pig brain membranes, using [3H]- DAMGO as radioligand
[1] = target: Kappa-type opioid receptor (Cavia porcellus, UniProt P41144); experiment: Compound was evaluated for the inhibition of Opioid receptor kappa1 binding to guinea pig brain membranes, using 1 nM [3H]- U69,593 as radioligand

| Compound | Ki (Mu-type opioid receptor) | Ki [1] |
| --- | --- | --- |
| CN(C(=O)Cc1ccc(Cl)c(Cl)c1)[C@@H](CN1CCCC1)c1cccc(N)c1 | 1380 nM | 14.9 nM |
| CN(C(=O)Cc1ccc(Cl)c(Cl)c1)[C@H](CN1CCCC1)c1cccc(N)c1 | 7.65 nM | 0.0592 nM |
